# Source: patent US20180155344A1, “TRICYCLIC PIPERIDINE COMPOUNDS” (ACTELION PHARMACEUTICALS LTD, priority 2015, published 2018)
# Molecular target: T1, human TPH1 (Homo sapiens, UniProt P17752)
# T1 sequence (P17752 1-444): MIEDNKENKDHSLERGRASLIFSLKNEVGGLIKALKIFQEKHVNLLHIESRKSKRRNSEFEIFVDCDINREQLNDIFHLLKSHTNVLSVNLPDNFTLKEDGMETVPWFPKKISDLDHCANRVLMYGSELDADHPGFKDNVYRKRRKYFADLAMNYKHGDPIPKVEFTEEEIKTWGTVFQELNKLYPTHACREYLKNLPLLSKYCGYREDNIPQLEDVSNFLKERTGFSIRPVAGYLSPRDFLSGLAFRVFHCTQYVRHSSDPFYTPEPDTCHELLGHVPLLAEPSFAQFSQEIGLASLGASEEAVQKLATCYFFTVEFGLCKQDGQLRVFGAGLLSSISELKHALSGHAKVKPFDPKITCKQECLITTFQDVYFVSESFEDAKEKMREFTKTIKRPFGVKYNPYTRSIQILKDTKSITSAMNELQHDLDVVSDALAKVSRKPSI
# Assay: biochemical
# From the text: Biochemical In Vitro Assay Using Fluorescence Readout
# To generate the enzyme, full length human TPH1 is cloned into the plasmid pET20b(+) (Novagen) and expressed in E. coli. The bacterial cells are ruptured by sonication on ice and the lysate is cleared by centrifugation. The resulting protein in the pellet is re-extracted and TPH1 is purified from the obtained lysate by affinity chromatography using a pterin cosubstrate analog immobilized to the resin of the column. The protein is further purified by size exclusion chromatography to remove protein aggregates. The activity of TPH1 is determined by using a fluorescence assay. The enzyme activity assay is carried out at 15° C. with atmosphere oxygen for the duration of 60 minutes in a volume of 64 μl. […] The amount of 5-hydroxy-L-tryptophan produced during the enzymatic reaction is determined by fluorescence readout. Fluorescence, as determined at 540 nm when excited at 300 nm wavelength, increases proportionally to the 5-hydroxy-L-tryptophan formed. […] Fluorescence is measured for each well and the fluorescence at 540 nm wavelength is compared to the fluorescence of the vehicle in place of compound. […] The calculated IC50 values may fluctuate depending on the daily biochemical assay performance. […]
compound,measurement,value
"CCc1cc(N2CC2)ccc1OCC(=O)N1CCc2nc3cc(C(F)(F)F)ccn3c2C1c1ccc(OC)c(OC)c1 (stereo not shown) [Example 3.1.34, 2-(4-(aziridin-1-yl)-2-ethylphenoxy)-1-(1-(3,4-dimethoxyphenyl)-7-(trifluoromethyl)-3,4-dihydroimidazo[1,2-a:5,4-c′]dipyridin-2(1H)-yl)ethan-1-one]",IC50,36 nM
